Holding throughout (assay): FOREST: bead pull-down of RNA structure library v1, barcode microarray; U1A/LIN28A: 20 mM HEPES pH 7.5, 80 mM KCl, 20 mM NaCl, 10% glycerol, 2 mM DTT, 0.1 ug/uL BSA, 4 C; BG4/CIRBP/DHX36: 10 mM Tris-HCl pH 7.5, 100 mM KCl (or LiCl),; high values mean tight binding
One assay concerns the target T1, LIN28A (human?, UniProt Q9H9Z2 1-209).
T1 sequence: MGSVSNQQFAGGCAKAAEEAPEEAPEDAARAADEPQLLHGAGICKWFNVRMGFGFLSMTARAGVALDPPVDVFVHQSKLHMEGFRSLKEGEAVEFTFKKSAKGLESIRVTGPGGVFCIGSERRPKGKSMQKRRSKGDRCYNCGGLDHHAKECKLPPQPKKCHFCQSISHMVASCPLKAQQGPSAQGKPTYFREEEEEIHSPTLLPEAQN

A further assay has as its target T2, CIRBP (Homo sapiens, UniProt Q14011 1-172).
T2 sequence: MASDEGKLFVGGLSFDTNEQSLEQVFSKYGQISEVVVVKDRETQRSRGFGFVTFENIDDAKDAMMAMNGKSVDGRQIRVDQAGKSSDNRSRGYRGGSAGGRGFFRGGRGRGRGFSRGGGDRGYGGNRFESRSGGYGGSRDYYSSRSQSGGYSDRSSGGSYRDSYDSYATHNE

A further assay has as its target T3, DHX36 (Homo sapiens, UniProt Q9H2U1 1-1008).
T3 sequence: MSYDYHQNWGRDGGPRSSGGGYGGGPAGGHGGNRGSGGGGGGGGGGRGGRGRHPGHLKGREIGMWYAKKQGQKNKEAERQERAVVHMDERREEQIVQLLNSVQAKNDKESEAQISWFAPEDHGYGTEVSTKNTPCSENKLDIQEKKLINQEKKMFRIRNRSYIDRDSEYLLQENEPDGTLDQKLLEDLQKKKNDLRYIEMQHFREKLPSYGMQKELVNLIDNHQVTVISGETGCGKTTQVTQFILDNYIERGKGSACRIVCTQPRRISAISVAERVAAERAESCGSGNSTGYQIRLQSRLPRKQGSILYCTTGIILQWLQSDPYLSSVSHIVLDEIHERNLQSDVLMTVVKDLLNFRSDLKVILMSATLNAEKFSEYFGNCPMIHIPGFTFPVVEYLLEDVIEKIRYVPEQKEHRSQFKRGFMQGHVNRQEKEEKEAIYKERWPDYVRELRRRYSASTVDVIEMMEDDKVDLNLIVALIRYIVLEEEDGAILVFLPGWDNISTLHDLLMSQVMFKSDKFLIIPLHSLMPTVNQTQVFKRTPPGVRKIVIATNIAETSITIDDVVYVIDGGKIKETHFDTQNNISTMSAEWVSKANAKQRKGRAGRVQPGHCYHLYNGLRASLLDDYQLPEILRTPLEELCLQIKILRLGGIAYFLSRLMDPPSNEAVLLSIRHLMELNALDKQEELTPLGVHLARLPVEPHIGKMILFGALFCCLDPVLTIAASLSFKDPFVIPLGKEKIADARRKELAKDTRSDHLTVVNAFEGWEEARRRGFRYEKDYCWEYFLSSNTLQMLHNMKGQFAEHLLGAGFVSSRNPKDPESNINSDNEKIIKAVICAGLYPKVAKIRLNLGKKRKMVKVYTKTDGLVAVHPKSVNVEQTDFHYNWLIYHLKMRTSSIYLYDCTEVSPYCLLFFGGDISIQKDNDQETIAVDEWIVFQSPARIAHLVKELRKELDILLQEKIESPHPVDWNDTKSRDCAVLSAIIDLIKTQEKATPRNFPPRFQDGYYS

The other results are listed elsewhere or left out.

B1: hsa-mir-19b-2 (structured_RNA)
RNA: GGGAUCUGUGCCAUCCGGGCUAACGUAUGGUGUACGAAGUUUCAGCCAUUUCAGCGUAUAUAUGUAUAUGUGGCUGUGGCUGAAGCUUCGUGCAC
For B1, the binding signal was -0.043 z-score in the assay with LIN28A, -1.09 z-score in the assay with CIRBP and -1.3 z-score with DHX36.

B2: hsa-mir-548i-4 (structured_RNA)
RNA: GGGAACCGGGGUUUAGAUUAUACCCGCCGGUGUACGAAGUUUCAGCUGCCAUACUUUUAACGGCAGCUGAAGCUUCGUGCAC
With B2, the binding signal with LIN28A is -0.0391 z-score; with CIRBP it was 0.877 z-score; with DHX36, -0.158 z-score.

B3: hsa-mir-891b (structured_RNA)
RNA: GGGCCUUAACAUGGAACCAAGGGUGCCAGGUGUACGAAGUUUCAGCUUGAUUCAGUAAAACAUUCAAGCUGAAGCUUCGUGCAC
As to B3, the results for the binding signal with LIN28A, in the assay with CIRBP and in the assay with DHX36 were -0.0565 z-score, -0.906 z-score and 0.108 z-score, respectively.

B4: hsa-mir-6889 (structured_RNA)
RNA: GGGAAAAGCGAUAACCGGUGGCCGUCUUGGUGUACGAAGUUUCAGCCGGAAUUCUCCAGAGCCUCUGGCUGAAGCUUCGUGCAC
In the case of B4, the binding signal with LIN28A was -0.0337 z-score; with CIRBP, -0.316 z-score; with DHX36 it was -0.756 z-score.

B5: hsa-mir-1253 (structured_RNA)
RNA: GGGAACGGGUAAGUAGGUAUCACACCACGGUGUACGAAGUUUCAGCUGCAGAUGUGGACUGCUAAAUGCAGCUGAAGCUUCGUGCAC
As to B5, the binding signal in the assay with LIN28A is -0.0551 z-score; with CIRBP it was 0.174 z-score; in the assay with DHX36, 0.0774 z-score.

B6: hsa-mir-378j (structured_RNA)
RNA: GGGAGAUGCGGAUACGGCGUAAGAAUUCGGUGUACGAAGUUUCAGCAGAAGAACUGCUGAAGCUUCGUGCAC
For B6, the binding signal with LIN28A was -0.0862 z-score; in the assay with CIRBP, -0.149 z-score; with DHX36 it was -1.3 z-score.

B7: hsa-mir-222 (structured_RNA)
RNA: GGGACACAUUGGGAAACGAGCUGCCAUAGGUGUACGAAGUUUCAGCAGAUCCUGUCUUUCGUAAUCAGCAGCUGCUGAAGCUUCGUGCAC
For the molecule B7, the results for the binding signal in the assay with LIN28A, with CIRBP and with DHX36 were -0.0263 z-score, 0.239 z-score and -0.815 z-score, respectively.

B8: hsa-mir-6882 (structured_RNA)
RNA: GGGAGACUGUAACCGUUGAUUGCCUACAGGUGUACGAAGUUUCAGCGCAGCUGGAAUUCAAGCCCUGCUGCGCUGAAGCUUCGUGCAC
On to B8, for which the binding signal was -0.0445 z-score in the assay with LIN28A, 1.07 z-score with CIRBP and -0.354 z-score with DHX36.

B9: hsa-mir-6859-1_6859-3_6859-2_6859-4 (structured_RNA)
RNA: GGGACACGUUACGCUGGAUAGACAACGCGGUGUACGAAGUUUCAGCCUCAGGACAGCGGGUGUCAGCUUGCCUGACGCUGAAGCUUCGUGCAC
Turning to B9, the binding signal in the assay with LIN28A was -0.0371 z-score; with CIRBP, 0.215 z-score; in the assay with DHX36, -0.87 z-score.

B10: hsa-mir-8062 (structured_RNA)
RNA: GGGACCAAGUCUGAUACCCCUGCUCCACGGUGUACGAAGUUUCAGCUUGCUCACGGUAAGAAAAACAUGAGUAAGCUGAAGCUUCGUGCAC
B10: the binding signal was -0.086 z-score with LIN28A, 0.954 z-score with CIRBP and -0.0682 z-score with DHX36.

B11: hsa-mir-4468 (structured_RNA)
RNA: GGGCAGGCGACAGUUAGGGACUUGUUCAGGUGUACGAAGUUUCAGCCUUUGGUGGCUAUGGUUGACUGGGCCACUCAGAGGCUGAAGCUUCGUGCAC
On to B11, for which the binding signal with LIN28A is -0.0692 z-score; with CIRBP it was -1.58 z-score; with DHX36, -0.158 z-score.

B12: hsa-mir-1302-7 (structured_RNA)
RNA: GGGAAGAUUCGUACGCUCAGGACCUACUGGUGUACGAAGUUUCAGCUGGUGCAAUAAUUGGGCUGAAGCUUCGUGCAC
Regarding B12, the binding signal was -0.0267 z-score in the assay with LIN28A, 0.33 z-score with CIRBP and -0.859 z-score in the assay with DHX36.

B13: hsa-mir-5585 (structured_RNA)
RNA: GGGACAGCACGCAAGGUCUCGACAAAGAGGUGUACGAAGUUUCAGCUCGAGAGGUCAGAGGAUUGCUCCUGAGCUGAAGCUUCGUGCAC
Consider B13, for which the binding signal is -0.0545 z-score in the assay with LIN28A, -0.104 z-score with CIRBP and -0.0916 z-score in the assay with DHX36.

B14: hsa-mir-320e (structured_RNA)
RNA: GGGAACGCUAUAGGACUGAUUGAACAGAGGUGUACGAAGUUUCAGCUUCUUCCUGGAGUCGGGGAAAAGGCUGAAGCUUCGUGCAC
B14: the binding signal was -0.0647 z-score with LIN28A, 1.74 z-score in the assay with CIRBP and 0.373 z-score with DHX36.

B15: hsa-mir-4539 (structured_RNA)
RNA: GGGAAAGCAUGCCAGGUGUUAUGGCUAAGGUGUACGAAGUUUCAGCUGCUGUGCUGUGCUGAGCAGGGCUGAGCUGGCUGAAGCUUCGUGCAC
Turning to B15, the binding signal in the assay with LIN28A is -0.0318 z-score; in the assay with CIRBP it was -0.0769 z-score; in the assay with DHX36, -0.556 z-score.

B16: hsa-mir-4645 (structured_RNA)
RNA: GGGCAAGCGGCCACUUAAAACAGCGAAAGGUGUACGAAGUUUCAGCUUGUCUCCUCAAGUUGCGACGAGACAGGCUGAAGCUUCGUGCAC
Take B16: the binding signal with LIN28A was -0.0427 z-score; with CIRBP, 0.045 z-score; with DHX36 it was -0.707 z-score.

B17: hsa-mir-3612 (structured_RNA)
RNA: GGGAACUGCGUUCGGGCAUGAUCCCUAGGGUGUACGAAGUUUCAGCUGGAAGGAAUGGGAUCUACUUCCAGCUGAAGCUUCGUGCAC
As to B17, the binding signal with LIN28A was -0.0292 z-score; with CIRBP, 0.264 z-score; with DHX36, 0.418 z-score.

B18: hsa-mir-4696 (structured_RNA)
RNA: GGGAAACAUGGGAAUCCACUUAUGCUCGGGUGUACGAAGUUUCAGCAUCUAUUCCAGAAGAUGCUGAAGCUUCGUGCAC
B18: the binding signal with LIN28A was -0.0371 z-score; with CIRBP it was 0.163 z-score; with DHX36 it was -0.273 z-score.

B19: hsa-mir-3926-1 (structured_RNA)
RNA: GGGAACUAACGGACAAUGCGUGUUUUAAGGUGUACGAAGUUUCAGCGAGACUUUAAAAGCGUCUCGCUGAAGCUUCGUGCAC
Consider B19, for which the binding signal in the assay with LIN28A was -0.0533 z-score; with CIRBP, 0.893 z-score; with DHX36 it was -0.456 z-score.

B20: hsa-mir-6862-2_6862-1 (structured_RNA)
RNA: GGGAAAAGUGGGUGCAACACUCUGGUUAGGUGUACGAAGUUUCAGCGAGACUUUGUGAUUUGUCUCCAAAGCCUCGCUGAAGCUUCGUGCAC
In the case of B20, the binding signal in the assay with LIN28A is -0.0635 z-score; with CIRBP it was 0.44 z-score; with DHX36, -0.996 z-score.

B21: hsa-mir-1249 (structured_RNA)
RNA: GGGACGUCAUCCUCGCGCCUUACAGAGUGGUGUACGAAGUUUCAGCAAGUUCCCUCUGGCUGGAACGCUGAAGCUUCGUGCAC
With B21, the binding signal in the assay with LIN28A was -0.083 z-score; with CIRBP, 0.306 z-score; with DHX36, -0.666 z-score.

B22: hsa-mir-340 (structured_RNA)
RNA: GGGAAAUAGCUGCGACGGCGCAUCCUAUGGUGUACGAAGUUUCAGCCUGAUUGUCAUAUGUCGUUUGUGGGAUCCGGCUGAAGCUUCGUGCAC
Turning to B22, the binding signal is -0.0566 z-score in the assay with LIN28A, 0.348 z-score in the assay with CIRBP and -0.247 z-score with DHX36.

B23: hsa-mir-3689d-1 (structured_RNA)
RNA: GGGAACAUAGUAUGACGUCCGGCUACUCGGUGUACGAAGUUUCAGCCUCGCUGGGAGGUGUGCUAUCGUCUUCCCCGGGAGGCUGAAGCUUCGUGCAC
B23: the binding signal in the assay with LIN28A is -0.0356 z-score; with CIRBP, -1.02 z-score; with DHX36 it was 0.644 z-score.

B24: hsa-mir-589 (structured_RNA)
RNA: GGGAUGGAGAACAAGCGCGCGGUACAUUGGUGUACGAAGUUUCAGCCUGAGCUGGGUACUGCCUGUUCAGGCUGAAGCUUCGUGCAC
In the case of B24, the binding signal with LIN28A was -0.0305 z-score; with CIRBP, -0.556 z-score; in the assay with DHX36, 1.66 z-score.

B25: hsa-mir-548f-2 (structured_RNA)
RNA: GGGAGCCUUUCUGCUCAUAAUUCCCCGGGGUGUACGAAGUUUCAGCUUUUAUCAUUACUUUUAAUGGCAAAAGCUGAAGCUUCGUGCAC
Take B25: the figures for the binding signal with LIN28A, in the assay with CIRBP and in the assay with DHX36 were -0.0762 z-score, 0.199 z-score and 0.645 z-score, respectively.

B26: hsa-mir-3692 (structured_RNA)
RNA: GGGAAUGGCAGUUUACUAACGGAGGACGGGUGUACGAAGUUUCAGCAUACUGGAGCAAUAGAUACAGUUGCUGAAGCUUCGUGCAC
In the case of B26, the binding signal with LIN28A is -0.0553 z-score; with CIRBP, 0.268 z-score; with DHX36, -1.3 z-score.

For the origin of these results see PMC7723054.
